Target: IDH1 R132H enzyme (Homo sapiens (Human), UniProt O75874, R132H)
Test: Mutant IDH1 R132H biochemical assay
Conditions: read-out: Mutant IDH1 R132H IC50; NADPH consumption, luminescent readout; 1.5 nM enzyme, 1 μM NADPH, 250 μM α-KG, 30 minutes, 32° C.
Procedure: Mutant IDH1 R132H Biochemical Assay mIDH1 catalyzes the NADPH-dependent reduction of alpha-ketoglutarate (a-KG) to (2R)-2-hydroxyglutarate (2-HG). NADPH consumption was measured by luminescent readout.
The biochemical reactions were performed at 32° C. in 384-well plates using a reaction volume of 41 μL and the following assay buffer conditions: 50 mM Tris pH 7.5, 100 mM NaCl, 20 mM MgCl2, 0.05% BSA, 0.01% Brij, 1 μM NADPH, and 250 μM α-KG. The IDH1 R132H enzyme was used in a final concentration of 1.5 nM. Test compounds were used in a concentration range between 0.002 and 10 μM. The final DMSO concentration was 2.4%.
The reaction was incubated for 30 minutes, then 40 μL of detection mix (0.75 μg/ml Luciferase, 0.02 U/ml Oxidoreductase, 4 μg/mL FMN, 2 μL/ml decanal/ethanol, 50 mM Tris pH 7.5, 0.5% Glycerin, 0.01% Tween-20, 0.05% BSA) was added. Luminescence was measured on a luminescent reader (10 seconds measuring time, 1 second integration period, 30% sensitivity). The decrease in luminescence is proportional to mIDH1 activity. IC50 values are determined by interpolation from plots of relative luminescence versus inhibitor concentration.

By UniProt entry, the sequences of proteins in these tests, tags left out.
UniProt O75874, whole entry R132H: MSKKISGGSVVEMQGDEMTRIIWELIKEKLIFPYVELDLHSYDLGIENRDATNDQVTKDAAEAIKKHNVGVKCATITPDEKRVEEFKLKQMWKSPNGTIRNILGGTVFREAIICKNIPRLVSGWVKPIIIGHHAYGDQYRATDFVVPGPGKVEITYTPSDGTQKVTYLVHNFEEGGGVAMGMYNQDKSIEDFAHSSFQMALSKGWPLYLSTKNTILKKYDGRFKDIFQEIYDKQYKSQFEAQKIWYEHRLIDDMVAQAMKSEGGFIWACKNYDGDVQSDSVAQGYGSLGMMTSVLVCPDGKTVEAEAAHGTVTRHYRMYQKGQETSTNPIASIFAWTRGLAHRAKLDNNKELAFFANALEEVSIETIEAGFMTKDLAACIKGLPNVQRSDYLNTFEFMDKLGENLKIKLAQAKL

COC(=O)c1cc2nc(Nc3ccc(OC(F)(F)F)cc3)n([C@@H]3C[C@H](C)CC[C@H]3C(C)C)c2cc1C
IC50: 0.038 µM
